The values below come from PMC6965684, “Characterization of binding, functional activity, and contractile responses of the selective 5‐HT1F receptor agonist lasmiditan” (British Journal of Pharmacology, 2019).

The chains behind the UniProt entries cited, without tags or fusion partners. Where a name states a change or a piece, a line headed by the entry shows the natural chain unless it says otherwise.
UniProt P28222, whole entry: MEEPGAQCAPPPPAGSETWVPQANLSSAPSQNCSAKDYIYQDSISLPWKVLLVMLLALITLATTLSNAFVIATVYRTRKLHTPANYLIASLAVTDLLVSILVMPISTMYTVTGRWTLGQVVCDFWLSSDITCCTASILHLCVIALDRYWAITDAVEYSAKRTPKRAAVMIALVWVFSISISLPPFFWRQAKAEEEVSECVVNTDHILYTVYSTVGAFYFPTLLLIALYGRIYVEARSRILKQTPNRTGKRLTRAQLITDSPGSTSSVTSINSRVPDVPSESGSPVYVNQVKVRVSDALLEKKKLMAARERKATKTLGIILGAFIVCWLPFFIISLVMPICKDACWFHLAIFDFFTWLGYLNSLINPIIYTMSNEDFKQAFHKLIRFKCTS
UniProt P28566: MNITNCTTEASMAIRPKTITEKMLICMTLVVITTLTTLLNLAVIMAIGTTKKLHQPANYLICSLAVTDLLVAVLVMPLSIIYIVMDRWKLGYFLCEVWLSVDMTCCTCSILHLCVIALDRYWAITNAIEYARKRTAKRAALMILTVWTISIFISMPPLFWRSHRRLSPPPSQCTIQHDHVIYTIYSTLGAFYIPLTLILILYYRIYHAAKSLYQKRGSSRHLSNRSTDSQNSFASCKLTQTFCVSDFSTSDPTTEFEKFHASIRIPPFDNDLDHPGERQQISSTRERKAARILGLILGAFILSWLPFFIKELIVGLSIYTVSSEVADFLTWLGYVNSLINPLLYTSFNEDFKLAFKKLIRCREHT

Molecules are shown by their SMILES. Structures can show the parent of a compound that is named as a salt.

In assay [1] the target is T1, 5-HT1B receptor (Homo sapiens, UniProt P28222).
T1 construct: gene HTR1B; full-length human recombinant receptor in CHO-K1 cells (Ogeda); crude membranes
Kind of assay: biochemical. The class given is CHO-K1 membranes. More on the design: radioligand competition binding on cell membranes, filtration and TopCount scintillation counting. Particulars: radioligand displacement; for IC50: read-out: 5‐HT1B / pIC50 (converted); for Ki: read-out: 5‐HT1B / pKi (converted). As to the method: (§1) Competition binding was performed in duplicate in the wells of a 96‐well plate containing binding buffer (optimized for each receptor), cell membrane extracts (approximately 20,000 cells distributed in the 96‐well plate), radiotracer, and test agonist. Non‐specific binding was determined by co‐incubation with 200‐fold excess of competitor. Cells were incubated and exposed to varying concentrations (1 pM to 10 μM) of a range of displacer agonists (see below). The samples were incubated in a final volume of 0.1 ml and then filtered over Unifilter plates (Perkin Elmer, Massachusetts, USA) pretreated for 2 hr to limit tracer non‐specific binding. Filters were washed five times with 0.5 ml of ice‐cold washing buffer (tris 50 mM pH 7.4) and 50 μl of Microscint 20 (Perkin Elmer) were added to each filter. The plates were incubated 15 min at room temperature on an orbital shaker and then counted with a TopCount™ (Perkin Elmer) for 1 min per well. […] Additionally, the reference values obtained were compared to historical values obtained from the same receptor and used to validate the experimental session. […] For the new assays developed in this study (i.e., 5‐ht1E receptor), the two independent pIC50 determined must be concordant with a 1 log unit interval for the assays to be validated.

Assay [2] deals with T1, 5-HT1B receptor. Description: cell-based. More on the design: species or system CHO-K1; cAMP HTRF agonist assay, Gi coupled receptors, inhibition of stimulated cAMP. Particulars: cAMP. The procedure:
Concentration–response curves were performed in parallel with the agonists. […] After addition of the lysis buffer and 1‐hr incubation, cAMP concentrations were estimated according to the manufacturer specification with the HTRF kit (Cisbio International, Codelet, France). In brief, increasing concentrations of agonists were added to stably transfected cells in buffer in an Optiplate (PerkinElmer Life Sciences, Massachusetts, USA). The plates were incubated, and cells were then lysed by the addition of HTRF reagents (cAMP‐Cryptate and anti‐cAMP‐d2 reagents) and diluted in lysis buffer, followed by incubation at room temperature. […] Additionally, the reference values obtained were compared to historical values obtained from the same receptor and used to validate the experimental session. […] For the new assays developed in this study (i.e., 5‐ht1E receptor), the two independent pIC50 determined must be concordant with a 1 log unit interval for the assays to be validated.

Assay [3] addresses T1, 5-HT1B receptor. Description: biochemical. The class given is CHO-K1 membranes. Particulars: GTPγS. More on the design: GTPγS agonist functional assay. An excerpt: Additionally, the reference values obtained were compared to historical values obtained from the same receptor and used to validate the experimental session. […] For the new assays developed in this study (i.e., 5‐ht1E receptor), the two independent pIC50 determined must be concordant with a 1 log unit interval for the assays to be validated.

The target of assay [4] is T2, 5-ht1E receptor (Homo sapiens, UniProt P28566).
T2 construct: gene HTR1E; full-length human recombinant receptor in CHO-K1 cells (Ogeda); crude membranes
Kind of assay: biochemical. In kind it is CHO-K1 membranes. More on the design: radioligand competition binding on cell membranes, filtration and TopCount scintillation counting. The conditions noted are these: radioligand displacement; read-out: 5‐ht1E / pKi (converted). The procedure: as §1
A general note: In a radioligand displacement assay an active substance lowers the binding of a labelled ligand.

The target in assay [5] is T2, 5-ht1E receptor. Description: biochemical. The conditions noted are these: radioligand displacement; read-out: 5‐ht1E / pIC50 (converted). In kind it is CHO-K1 membranes. More on the design: radioligand competition binding on cell membranes, filtration and TopCount scintillation counting. The procedure: as §1, with “validated. […]” for “validated.”
Assay [6] concerns the target T2, 5-ht1E receptor. Description: cell-based. More on the design: species or system CHO-K1; cAMP HTRF agonist assay, Gi coupled receptors, inhibition of stimulated cAMP. The conditions noted are these: cAMP. As to the method: Concentration–response curves were performed in parallel with the agonists. For agonist tests, 12 μl of cells were mixed with 6 μl of the test compound (at increasing concentrations) and 6 μl of https://www.guidetopharmacology.org/GRAC/LigandDisplayForward?ligandId=5190 and then incubated for 30 min at room temperature. After addition of the lysis buffer and 1‐hr incubation, cAMP concentrations were estimated according to the manufacturer specification with the HTRF kit (Cisbio International, Codelet, France). In brief, increasing concentrations of agonists were added to stably transfected cells in buffer in an Optiplate (PerkinElmer Life Sciences, Massachusetts, USA). The plates were incubated, and cells were then lysed by the addition of HTRF reagents (cAMP‐Cryptate and anti‐cAMP‐d2 reagents) and diluted in lysis buffer, followed by incubation at room temperature. As 5‐HT1B receptors have been reported in naïve CHO‐K1 cells (George, Bungay, & Naylor, 1997), we also tested https://www.guidetopharmacology.org/GRAC/LigandDisplayForward?ligandId=4 (5‐CT, the reference agonist for the 5‐HT1B receptor), in CHO‐K1 cells transfected with a non‐5‐HT, GPCR. […] For the new assays developed in this study (i.e., 5‐ht1E receptor), the two independent pIC50 determined must be concordant with a 1 log unit interval for the assays to be validated. […]

For assay [7], the target named is T2, 5-ht1E receptor. Kind of assay: biochemical. Particulars: GTPγS. More on the design: GTPγS agonist functional assay. The class given is CHO-K1 membranes. An excerpt: Additionally, the reference values obtained were compared to historical values obtained from the same receptor and used to validate the experimental session. […] For the new assays developed in this study (i.e., 5‐ht1E receptor), the two independent pIC50 determined must be concordant with a 1 log unit interval for the assays to be validated. […]

What is called EC50 is the concentration needed to bring the measured effect to its halfway point. A lower EC50 goes with greater potency. Regarding `CNC1CCc2[nH]c3ccc(C(N)=O)cc3c2C1` (racemic) [Frovatriptan racemate], at 5-HT1B receptor [1], the IC50 is 8.13 nM and the Ki is 2.69 nM. Further, on 5-HT1B receptor [2], the EC50 was 10.5 nM. This compound gave an EC50 on 5-HT1B receptor [3] of 7.24 nM.

Consider `CN(C)[C@@H]1CCc2[nH]c3ccc(NC(=O)c4ccc(F)cc4)cc3c2C1` [LY344864 hydrochloride], for which the IC50 at 5-HT1B receptor [1] is 741 nM; on 5-ht1E receptor [5], 891 nM. Besides, the Ki is 245 nM on 5-HT1B receptor [1] and 447 nM at 5-ht1E receptor [4]. The EC50 at 5-HT1B receptor [2] is more than 10000 nM; at 5-HT1B receptor [3], 1510 nM; at 5-ht1E receptor [6], 603 nM; at 5-ht1E receptor [7], 759 nM.
